Data published in US8304394B2, “Low side effect pharmaceutical composition containing isoniazid” (priority 2008, dated 2012).

Chains of the proteins cited; added tags and fusions are not shown. Lines headed by an entry give the natural chain unless they say otherwise; changes in a name come on top.
UniProt P05181: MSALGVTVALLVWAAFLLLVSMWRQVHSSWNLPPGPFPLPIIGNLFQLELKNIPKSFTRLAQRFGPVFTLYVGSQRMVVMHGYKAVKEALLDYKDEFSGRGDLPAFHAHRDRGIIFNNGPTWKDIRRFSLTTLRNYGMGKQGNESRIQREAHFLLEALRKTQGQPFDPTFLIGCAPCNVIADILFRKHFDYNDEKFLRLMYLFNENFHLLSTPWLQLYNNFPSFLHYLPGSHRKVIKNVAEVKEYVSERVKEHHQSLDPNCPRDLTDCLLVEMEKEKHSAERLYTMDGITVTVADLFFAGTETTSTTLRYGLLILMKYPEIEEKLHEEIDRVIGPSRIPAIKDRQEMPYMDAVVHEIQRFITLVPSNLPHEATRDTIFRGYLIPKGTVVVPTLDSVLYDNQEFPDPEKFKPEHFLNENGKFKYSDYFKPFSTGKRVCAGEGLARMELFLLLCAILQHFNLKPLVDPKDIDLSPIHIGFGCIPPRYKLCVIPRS

Target: human liver microsomal cytochrome P450 2E1 (CYP2E1) (Homo sapiens, UniProt P05181)
Assay: Chlorzoxazone hydroxylation inhibition (6-OH-CZX by LC/MS/MS)
Details: tested concentration 66 μM

## Oc1cc(O)c2c(c1)O[C@@H](c1ccc(O)c(O)c1)[C@@H](O)C2 [(+)-Epicatechin]
  Inhibition of CYP 2E1 (%): 44.32 ± 1.25%
